Target: Vip3Cb1 protoxin with two engineered cysteine mutations (Cys162 and Cys164) (Paenibacillus sp. strain DSC004343)
Experiment: cryo-EM structure

Work on “Vip3Cb1 protoxin with two engineered cysteine mutations (Cys162 and Cys164) (natural protein)” yielded a stoichiometry N of 4.
